The test addresses Histone deacetylase 1 (Homo sapiens) (UniProt Q13547). Conditions: Sf9, 1 uM.

Protein sequences, listed by entry. Tags and fused reporters are not part of them.
UniProt Q13547, whole entry: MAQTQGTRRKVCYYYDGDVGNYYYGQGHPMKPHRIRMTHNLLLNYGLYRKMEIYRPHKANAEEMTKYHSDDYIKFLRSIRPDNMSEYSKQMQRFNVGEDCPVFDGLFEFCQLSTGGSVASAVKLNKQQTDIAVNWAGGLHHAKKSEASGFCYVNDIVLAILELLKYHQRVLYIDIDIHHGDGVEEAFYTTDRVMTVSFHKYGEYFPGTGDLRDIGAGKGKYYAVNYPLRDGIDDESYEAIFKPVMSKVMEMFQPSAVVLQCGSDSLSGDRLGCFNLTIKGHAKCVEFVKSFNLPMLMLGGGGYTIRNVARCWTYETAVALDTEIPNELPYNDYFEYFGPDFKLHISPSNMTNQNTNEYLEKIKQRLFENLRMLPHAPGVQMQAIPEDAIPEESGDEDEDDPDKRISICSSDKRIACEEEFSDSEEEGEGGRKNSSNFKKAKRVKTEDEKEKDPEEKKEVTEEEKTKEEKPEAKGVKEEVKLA

SMILES strings stand for the structures. Some results are limits rather than exact numbers.

As to `CCCCCCCCCCCOC(=O)Cc1ccc(NC(=O)CCCCCCC(=O)NO)cc1`, the inhibition is < 100%.
For `CCCCCCCCCCOC(=O)Cc1ccc(NC(=O)CCCCCCC(=O)NO)cc1`, the inhibition was < 100%.
